Antibody variant affinities, Ab-14 heavy chain, assay B

All variants were tested on one target, the spike HR2 peptide PDVDLGDISGINAS (SARS-CoV-2).

The variants keep the light chain, the linker and the frameworks of Ab-14 (scFv order VH, three GGGGS repeats, VL).
VH: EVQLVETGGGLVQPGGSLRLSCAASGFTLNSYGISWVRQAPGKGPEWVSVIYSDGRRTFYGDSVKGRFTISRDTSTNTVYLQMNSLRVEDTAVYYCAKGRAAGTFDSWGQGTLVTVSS
VL: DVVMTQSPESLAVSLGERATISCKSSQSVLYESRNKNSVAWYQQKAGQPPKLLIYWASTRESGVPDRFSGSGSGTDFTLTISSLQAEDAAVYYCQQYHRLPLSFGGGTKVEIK

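The parent was found by panning a naive human phage display library on the peptide. Designed CDR sequences, proposed from the first random library and measured here. Group labels follow the data file (En: ensemble of fine-tuned language models; HC: hill climbing; Gen: genetic algorithm; Gibbs: Gibbs sampling; a sequence that several methods proposed may carry one label only). Affinity was read by AlphaSeq, a pooled yeast mating assay with surface-displayed partners. Mating (16 h, 30 °C) was followed by selection of diploids and sequencing of their barcodes. A regression on co-assayed BCL2-family reference pairs converts the normalised counts of each replicate to an apparent Kd. Mating was done six times.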

The parent's heavy chain CDRs are GFTLNSYGIS, VIYSDGRRTFYGDSVK, GRAAGTFDS; each variant's own CDRs replace them letter for letter. Variants here have more than six changes. Each Kd is an estimate from the mating assay, the geometric mean of the replicates in which the pair was seen; lower is stronger. A pair that was not seen in any replicate is written "nd"; this usually means weak binding, but a binder can also be missed. The authors' rule: three or more of the six replicates give a measured affinity, fewer mean a poor binder.

With GFDIEKYGIS / VIYADGQRVAYDSSVK / GENAGNFMV [En_Gibbs] the result was 150 nM (2 of 6 replicates). The variant GFDLNEYGIS / VIYADGMRTAYIDSVK / GETAGTFDL [En_Gen] showed 560 pM (6 of 6 replicates). For GFDLNEYGIS / VIYADGQRTAYADSVK / GNQAGTFDL [En_Gen], the assay gave 940 pM (6 of 6 replicates). The variant GFSLDEYGIS / VIYADGVRQAYQDSVK / GQWHGTFDY [En_Gibbs] showed 8.3 nM (6 of 6 replicates). The variant GFDLNEYGIS / VIYADGVRTAYADNVK / GNTAGTFDV [En_Gen] gave 1.0 nM (6 of 6 replicates). With GFDLDEYGIS / VIYADGMRTAYADSVK / GQTAGTFDL [En_Gen] the result was 200 pM (6 of 6 replicates). For GFDLNEYGIS / VIYADGRRTFYADSVK / GNTAGTFLQ [En_HC], the assay gave 260 pM (6 of 6 replicates). With GFDLNEYGIS / VIYADGVRTAYTDSVK / GNVAGTFDT [En_Gen] the result was 320 pM (6 of 6 replicates). The variant GFDLDEYGIS / VIYADGRRTAYSDSVK / GNQAGTFDV [En_Gen] gave 490 pM (6 of 6 replicates).

With GFDLDEYGIS / VIYADGMRTYYADSVK / GENAGTFDV [En_Gen] the result was 2.9 nM (5 of 6 replicates). For GFSLDEYGIS / VIYADGQRKHYADSVK / GLIDVYYFA [En_Gibbs], the assay gave nd (0 of 6 replicates). The variant GFDLNEYGIS / VIYADGKRTFYADSVK / GNVAGTFDM [En_Gen] gave 1.2 nM (5 of 6 replicates). For GFDLESYGIS / VIYADGSRTAYADSVK / GNVAGTFNQ [En_HC], the assay gave 550 pM (6 of 6 replicates). The variant GFNLNEYGIS / VIYADGRRTFYADSVK / GGHAGTFDV [En_HC] showed 210 pM (6 of 6 replicates). The variant GFSIDEYGIS / VIYADGTRTAYADDVK / GAYDTVAVL [En_Gibbs] gave 2.3 µM (1 of 6 replicates). The variant GFDLNEYGIS / VIYADGSRTAYVDSVK / GNVAGTFDQ [En_Gen] gave 180 pM (6 of 6 replicates). The variant GFDLNEYGIS / VIYADGMRTFYSDSVK / GEIAGTFDS [En_HC] gave 720 pM (6 of 6 replicates). For GFDLNEYGVS / VIYADGIRTSYTDSVK / GHVVDLLMA [En_Gibbs], the assay gave 160 nM (2 of 6 replicates).

The variant GFQIDEYGIS / VIYADGQRSAYTENVK / GQHGGMTVA [En_Gibbs] gave nd (0 of 6 replicates). For GFDLNEYGIS / VIYADGKRTFYSDSVK / GNLGGTFDV [En_HC], the assay gave 1.8 nM (6 of 6 replicates). With GFDLNEYGIS / VIYADGMRTAYVDSVK / GEVAGTFDM [En_Gen] the result was 750 pM (6 of 6 replicates). For GFDLEEYGIS / VIYADGRRTAYSDSVK / GENAGTFDV [En_HC], the assay gave 1.1 nM (6 of 6 replicates). With GFDLNEYGIS / VIYADGIRTFYADSVK / GNVAGTFDS [En_HC] the result was 190 pM (6 of 6 replicates). With GFDLNEYGIS / VIYADGMRTAYSDSVK / GENAGTFVV [En_Gen] the result was 58 nM (5 of 6 replicates). For GFDLDEYGIS / VIYADGQRTAYADSVK / GQNAGTFDM [En_Gen], the assay gave 520 pM (6 of 6 replicates). For GFGIEEYGIS / VIYADGVRKAYQNSFK / GEVGGTFTN [En_Gibbs], the assay gave 210 pM (6 of 6 replicates). The variant GFNINEYGVS / VIYADGERTYYADKVK / GHNGVMALD [En_Gibbs] showed 19 nM (5 of 6 replicates).

The variant GFNLNEYGIS / VIYADGVRKFYADSVK / GNTAGTFDV [En_HC] gave 570 pM (6 of 6 replicates). The variant GFDLNEYGIS / VIYADGMRTFYTDSVK / GNVAGTFDV [En_Gen] gave 90 pM (6 of 6 replicates). The variant GFDLNEYGIS / VIYADGMRTAYVDSVK / GNNAGTFDT [En_Gen] showed 470 pM (6 of 6 replicates). The variant GFDLNEYGIS / VIYADGRRTAYADSVK / GNLAGTFDV [En_Gen] gave 440 pM (6 of 6 replicates). The variant GFDLNEYGIS / VIYADGMRTAYAESVK / GEVAGTFDV [En_Gen] showed 380 pM (6 of 6 replicates). The variant GFDLNEYGIS / VIYADGKRTFYADSVK / GQVAGTFDV [En_Gen] showed 540 pM (6 of 6 replicates). For GFNLDEYGIS / VIYADGKRSHYTDKVK / GTFGDFMMV [En_Gibbs], the assay gave nd (0 of 6 replicates). The variant GFDLNEYGIS / VIYADGVRTAYSDSVK / GNNAGTFDM [En_Gen] showed 4.9 nM (6 of 6 replicates).

The opening 3 entries, copied out:

CDR-H1	CDR-H2	CDR-H3	group	Kd	replicates with signal
GFDIEKYGIS	VIYADGQRVAYDSSVK	GENAGNFMV	En_Gibbs	150 nM	2 of 6
GFDLNEYGIS	VIYADGMRTAYIDSVK	GETAGTFDL	En_Gen	560 pM	6 of 6
GFDLNEYGIS	VIYADGQRTAYADSVK	GNQAGTFDL	En_Gen	940 pM	6 of 6

The range of this assay differs from that of the first round, and the authors advise against merging the two. The parent sequence was in this pool as ten entries: three were never detected, three once, and four in most replicates, with averages from 2.2 nM to 240 nM. As a blank, each scFv also met three strains without target: over all heavy chain designs, 1% of these pairings were detected, typically at 120 nM and seldom below 7.0 nM.

Data: MIT Lincoln Laboratory AlphaSeq set, Li et al. 2023, doi:10.1038/s41467-023-39022-2, as distributed in FLAb.